In patent US9249124B2 (priority 2011, dated 2016):
Where a name gives a salt, the structure may show the parent alone.

By UniProt entry, the sequences of proteins in these tests, tags left out. Where a name states a change or a piece, a line headed by the entry shows the natural chain unless it says otherwise.
UniProt O14965: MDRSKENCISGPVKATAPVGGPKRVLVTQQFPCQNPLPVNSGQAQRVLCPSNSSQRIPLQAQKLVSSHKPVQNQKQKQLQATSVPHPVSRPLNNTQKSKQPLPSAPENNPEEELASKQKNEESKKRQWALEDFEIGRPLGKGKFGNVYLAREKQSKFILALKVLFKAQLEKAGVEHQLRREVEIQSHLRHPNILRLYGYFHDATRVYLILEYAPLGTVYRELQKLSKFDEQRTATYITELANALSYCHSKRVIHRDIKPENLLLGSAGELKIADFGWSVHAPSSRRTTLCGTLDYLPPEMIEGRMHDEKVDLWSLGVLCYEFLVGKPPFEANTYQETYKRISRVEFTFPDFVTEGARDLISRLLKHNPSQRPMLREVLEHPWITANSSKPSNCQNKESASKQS

What follows are molecules tested against Aurora A (Homo sapiens (Human), UniProt O14965) (assay: biochemical).

Row | SMILES | IC50 [nM]
1 | CCOC(=O)c1ccc(Nc2nc(Cl)c(Cl)c(Nc3ccccc3C(=O)O)n2)cc1.Cl [Compound 3t, N^4-(2-Carboxyphenyl)-N^2-(4-ethoxycarbonylphenyl)-5,6-dichloropyrimidine-2,4-diamine hydrochloride] | 0.8 to 4

What follows are molecules tested on phosphorylation of serine 10 on Histone H3 (Aurora A substrate) in MDA-MB-468 breast cancer cells (assay: not given).

Row | SMILES | effect on Histone H3 phosphorylation levels (FIG. 13, words)
2 | CN(C)CCNC(=O)c1ccc(Nc2nccc(Nc3ccccc3Cl)n2)cc1 [Compound 9a, N^4-(2-Chlorophenyl)-N^2-[4-N-(2-morpholinoethyl)carbamoylphenyl]pyrimidine-2,4-diamine dihydro-chloride] | mediocre to good improvements
3 | CS(=O)(=O)c1ccc(Nc2nccc(Nc3ccccc3Cl)n2)cc1 [Compound 9d, N^4-(2-Chlorophenyl)-N^2-[4-(methylsulfonyl)phenyl]pyrimidine-2,4-diamine] | mediocre to good improvements
4 | Fc1cnc(Nc2ccc(N3CCOCC3)cc2)nc1Nc1ccccc1Cl [Compound 9j, N^4-(2-Chlorophenyl)-N^2-[4-(N-morpholino)phenyl]-5-fluoropyrimidine-2,4-diamine] | greatly improved the ability to suppress Histone H3 phosphorylation
5 | O=C(NCCN1CCOCC1)c1ccc(Nc2nccc(Nc3ccccc3Cl)n2)cc1 [Compound 9b, N^4-(2-Chlorophenyl)-N^2-[4-N-(2-dimethylaminoethyl)carbamoylphenyl]-pyrimidine-2,4-diamine dihydro-chloride] | mediocre to good improvements
6 | Clc1ccccc1Nc1ccnc(Nc2ccc(-c3nnn[nH]3)cc2)n1 [Compound 13a, N^4-(2-Chlorophenyl)-N^2-[4-(2H-tetrazol-5-yl)phenyl]pyrimidine-2,4-diamine hydrochloride] | did not improve activity
7 | Fc1cnc(Nc2ccc(-c3nnn[nH]3)cc2)nc1Nc1ccccc1Cl [Compound 13b, N^4-(2-Chlorophenyl)-N^2-[4-(2H-tetrazol-5-yl)phenyl]-5-fluoropyrimidine-2,4-diamine hydrochloride] | did not improve activity
8 | Clc1ccccc1Nc1nc(Nc2ccc(-c3nnn[nH]3)cc2)ncc1Cl [Compound 13d, N^4-(2-Chlorophenyl)-N^2-[4-(2H-tetrazol-5-yl)phenyl]-5-chloropyrimidine-2,4-diamine hydrochloride] | did not improve activity
